{
  "sequences": {"note": "Protein sequences, listed by entry. Tags and fused reporters are not part of them.", "UniProt P07550, whole entry": "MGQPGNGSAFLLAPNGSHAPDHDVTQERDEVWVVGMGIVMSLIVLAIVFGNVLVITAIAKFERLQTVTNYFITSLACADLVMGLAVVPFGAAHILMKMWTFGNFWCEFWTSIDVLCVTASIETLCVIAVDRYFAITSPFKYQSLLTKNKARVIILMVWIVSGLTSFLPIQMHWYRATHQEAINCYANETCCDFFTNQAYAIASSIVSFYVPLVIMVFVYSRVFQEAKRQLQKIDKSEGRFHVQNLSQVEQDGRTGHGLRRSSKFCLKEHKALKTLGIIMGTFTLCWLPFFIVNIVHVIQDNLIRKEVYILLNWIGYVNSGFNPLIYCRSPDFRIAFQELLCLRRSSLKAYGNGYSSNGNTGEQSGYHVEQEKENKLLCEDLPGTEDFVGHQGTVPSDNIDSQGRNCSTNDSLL"},
  "source": "patent US10617654B2",
  "about": "“Use of fenoterol and fenoterol analogues in the treatment of glioblastomas and astrocytomas” (priority 2010, dated 2020)",
  "origin": "cited, not measured here",
  "biological_target": "β2-AR (Homo sapiens (Human), UniProt P07550)",
  "conditions": "previously reported, cited from earlier work",
  "data": [
    {"smiles": "COc1ccc(C[C@@H](C)NC[C@H](O)c2ccc(O)c3[nH]c(=O)ccc23)cc1", "values": [
      {"measurement": "Ki β1/Ki β2", "value": 53},
      {"measurement": "Ki", "setting": "read-out: β2 Ki", "value": 12, "unit": "nM"}
    ]}
  ]
}
